Measurements from PMC12567096, “An Efficacy- and In Vivo Exposure-Oriented Integrated Study to Investigate the Effective Components of Qishen Granule” (Pharmaceuticals, 2025).

Experiments:
[1] = Concentrations of 24 analytes in QSG treated plasma (Table S5); details: n = 5
[2] = Pharmacokinetic study in rats after oral administration of QSG
[3] = rat plasma, single oral 7 g/kg QSG, n = 6

Liquiritin apioside
Concentration ([1]; 0.08 h): 4.615 ± 2.872 ng/mL
Concentration ([1]; 0.17 h): 18.791 ± 17.432 ng/mL
Concentration ([1]; 0.5 h): 43.543 ± 9.903 ng/mL
Concentration ([1]; 1 h): 20.141 ± 7.771 ng/mL
Concentration ([1]; 2 h): 13.225 ± 5.233 ng/mL
Concentration ([1]; 4 h): 8.826 ± 3.566 ng/mL
Concentration ([1]; 8 h): 7.075 ± 1.340 ng/mL
Concentration ([1]; 12 h): 4.785 ± 0.620 ng/mL
AUC0→∞ ([2]; Table S12, rats, oral QSG): 185.7 ng·h/mL
AUCi ([2]; exposure (AUC0→∞) of the component in rats after oral QSG, as used for ECI): 185.7
Oral relative bioavailability ([2]; exposure level (AUC0→∞) compared with the dosage of each compound in QSG): 0.009%
AUC0→t [2, 3]: 176.2 ± 22.47 ng·h/mL
AUC0→∞ [2, 3]: 185.7 ± 23.88 ng·h/mL
Cmax [2, 3]: 50.54 ± 10.68 ng/mL
MRT [2, 3]: 7.322 ± 0.9520 h
T1/2 [2, 3]: 7.037 ± 2.092 h
Tmax [2, 3]: 25.9 ± 5.58 min
